Data from PubChem BioAssay (Tox21).
Several values for one entry are separate records, joined by “and”; a condition that tells them apart may be missing. Equal entries are not always repeated. This is a selection; strong and weak results do not stand in their true shares. Results filed as inconclusive are left out. Activity calls are given as the source filed them. Calls come from the whole dose curve.

Protein sequences, listed by entry. Tags and fused reporters are not part of them.
UniProt P22303, whole entry: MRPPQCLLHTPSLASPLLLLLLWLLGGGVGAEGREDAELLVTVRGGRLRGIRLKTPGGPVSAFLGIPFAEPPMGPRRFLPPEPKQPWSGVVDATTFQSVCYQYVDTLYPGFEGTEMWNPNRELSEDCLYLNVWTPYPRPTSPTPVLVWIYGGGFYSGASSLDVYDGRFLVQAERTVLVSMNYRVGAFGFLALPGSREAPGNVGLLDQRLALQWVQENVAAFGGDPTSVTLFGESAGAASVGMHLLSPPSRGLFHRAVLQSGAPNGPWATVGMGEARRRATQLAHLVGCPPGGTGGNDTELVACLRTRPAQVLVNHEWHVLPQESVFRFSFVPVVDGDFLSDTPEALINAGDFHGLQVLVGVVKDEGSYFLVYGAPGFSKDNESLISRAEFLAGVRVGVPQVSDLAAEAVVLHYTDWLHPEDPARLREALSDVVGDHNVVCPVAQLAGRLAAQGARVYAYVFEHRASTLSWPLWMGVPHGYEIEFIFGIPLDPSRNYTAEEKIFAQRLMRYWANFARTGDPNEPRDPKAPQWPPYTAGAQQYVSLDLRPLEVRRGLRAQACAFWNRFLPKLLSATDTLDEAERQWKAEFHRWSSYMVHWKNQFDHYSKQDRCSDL

target: Acetylcholinesterase (Homo sapiens) (UniProt P22303); assay: Acetylcholinesterase (AChE) small molecule antagonists: colormetric cell-based qHTS assay (AID 1347395); settings: SH-SY5Y cells AChE activity, colorimetric (Ellman); series mostly up to 115 µM; activity, negative = inhibition: at the top concentration; note: nearly all actives have a fitted effect of over 30% in size
Description: National Center for Advancing Translational Sciences [NCATS]
Division of Preclinical Innovation [DPI]
U.S. Environmental Protection Agency [EPA]
National Institutes of Environmental Health Sciences [NIEHS]
National Toxicology Program [NTP]
U.S. Food and Drug Administration [FDA]
Acetylcholinesterase (AChE) is the primary cholinesterase in the body that hydrolyzes a key neurotransmitter, acetylcholine. Inhibition of AChE activity can lead to neurotoxicity. The known inhibitors include organophosphorous pesticides (OP), chemical warfare agents, drugs, and various phytochemicals.
A homogenous cell-based assay using the Amplite Colormetric acetylcholinesterase assay kit (AAT Bioquest, Sunnyvale, CA) was used to evaluate the chemicals in the Tox21 10K library that inhibit AChE activity. The assay uses 5, 5-dithiobis-(2-nitrobenzoic acid) (DTNB) to quantify the thiocholine produced from the hydrolysis of acetylthiocholine by AChE from the SH-SY5Y cells.
Tox21 Assay Protocol Summary:
For the cell-based AChE assay, 2,000 SH-SY5Y cells in 4 uL/well were dispensed into black, clear-bottom 1536-well plates using a Multidrop Combi dispenser (Thermo Scientific, MA). The assay plates were incubated overnight at 37 C to allow cells to attach to the wells, followed by the transfer of 23 nL of compound or DMSO (vehicle control) by a Pintool Station (Wako Automation, CA). The plates were incubated for 30 min at 37 C and 5% CO2, followed by the addition of 4 uL of detection cocktail solution (DTNB, acetylthiocholine) into each well using a Flying Reagent Dispenser (Beckman Coulter, CA) and then 90 min incubation at 37 C.
% is set by controls: 0 for no effect and ±100 for the full control effect; potency is the fitted concentration of half-maximal effect.

SMILES	activity, negative = inhibition	Potency
Nc1cc([N+](=O)[O-])cc([N+](=O)[O-])c1O	inactive: 12%	
CCC(=O)N(c1ccccc1)C1CCNCC1	inactive: 1.54% [at 52.9 µM]	
OCCSCCO		inactive
O=[N+]([O-])[O-].[NH4+]		inactive
COc1ccc([N+](=O)[O-])cc1[N+](=O)[O-]		active: 39.9 µM
Cc1ccc([N+](=O)[O-])cc1[N+](=O)[O-]		active: 55.6 µM and active: 39.9 µM
COP(C)(=O)OC		inactive
CN(C)CCCl	inactive: 2.78%	
ClCCOP(OCCCl)OCCCl		inactive
N=C(N)N[N+](=O)[O-]	inactive: 4.76%	
CCOP(=O)(Cl)Cl		inactive
Cc1ccc([N+](=O)[O-])c([N+](=O)[O-])c1		active: 40.8 µM and active: 39.9 µM
O=[N+]([O-])OCC(CO[N+](=O)[O-])(CO[N+](=O)[O-])CO[N+](=O)[O-]	inactive: -4.21%	
[NH4+].[O-][Cl+3]([O-])([O-])[O-]		inactive
ClCCNCCCl	inactive: 4.27%	
CC(C)N(CCO)C(C)C	inactive: -4.14%	
CC(C)OP(OC(C)C)OC(C)C	inactive: -10.8%	
CP(=O)(O)OCCC[Si](O)(O)O	inactive: -0.498%	
CCOP(=O)(CC)OCC	inactive: 3.08%	
N#CBr	inactive: 1.84%	
CCOC(=O)N1CCC(=O)CC1	inactive: 3.35% [at 52.9 µM]	
CCN(CC)CCCl	inactive: 2.6%	
